AlphaSeq binding of Ab-95 light chain variants to a spike HR2 peptide

Source: Engelhart et al. 2022 (doi:10.1038/s41597-022-01779-4), MIT Lincoln Laboratory and A-Alpha Bio; data file from the FLAb repository.

Target peptide (SARS-CoV-2 spike, HR2 region): PDVDLGDISGINAS

The variants keep the heavy chain, the linker and the frameworks of Ab-95 (scFv order VH, a 15-residue (Gly4Ser)3 linker, VL).
VH: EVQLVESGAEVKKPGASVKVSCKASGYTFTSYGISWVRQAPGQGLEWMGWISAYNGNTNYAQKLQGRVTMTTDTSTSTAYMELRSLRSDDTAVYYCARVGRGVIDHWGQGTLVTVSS
VL: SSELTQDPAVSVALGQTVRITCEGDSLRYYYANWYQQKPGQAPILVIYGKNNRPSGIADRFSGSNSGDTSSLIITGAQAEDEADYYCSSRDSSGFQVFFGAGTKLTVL

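The starting antibody came from a phage panning campaign against this peptide. AAYL52 was designed without a model: most single CDR substitutions and a random sample of double and triple ones. Affinity was read by AlphaSeq, a pooled yeast mating assay with surface-displayed partners. Binding brings cells together so that they mate, and sequencing counts the barcode pairs among the diploids. The ratio of observed to expected reads was calibrated, replicate by replicate, on BCL2-family standards whose Kd was known from biolayer interferometry. Each pool was mated in three replicate cultures.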

Changes read parent residue, position, new residue, counted from the first residue of the VL shown. Every variant below is changed at R90 of the VL (sequential numbering). Values are apparent Kd, the geometric mean of the replicates that gave a signal; lower means stronger binding. An entry "nd" has no value in the source: the pair was not observed among the diploids in any replicate. This suggests poor binding but is not conclusive. Entries are sorted by rising average, undetected variants last. For reference, the parent read 200 nM as the reference entry and 180 nM as a member of this library. Background: pairings of library AAYL52 with three empty control strains gave a value in 28% of cases (median 8.2 µM, 5th percentile 800 nM). Values in that range, when seen in few replicates, are hard to tell from nonspecific mating.

For Y30Q R90N V97L, the assay gave 3.5 nM (3 of 3 replicates). For Y31N R90N, the assay gave 7.5 nM (3 of 3 replicates). Variant Y30G Y31H R90D gave 44 nM (3 of 3 replicates). Variant R28F Y30A R90A showed 93 nM (3 of 3 replicates). Variant D25Y S89L R90L gave 160 nM (3 of 3 replicates). With R90T the result was 260 nM (3 of 3 replicates). Variant R90T S93D showed 280 nM (3 of 3 replicates).

For S26A S55N R90P, the assay gave 300 nM (3 of 3 replicates). With Y31P S89G R90L the result was 430 nM (3 of 3 replicates). For N52Q R90M S93F, the assay gave 510 nM (3 of 3 replicates). With Y31I N51M R90I the result was 690 nM (1 of 3 replicates). For R90E F95M, the assay gave 840 nM (3 of 3 replicates). Variant R90K S93L G94A showed 860 nM (3 of 3 replicates). With S88N R90D S92T the result was 1.1 µM (3 of 3 replicates).

Variant D25V K50T R90K showed 1.1 µM (3 of 3 replicates). Variant R90C D91S G94C showed 1.1 µM (1 of 3 replicates). Variant R90T D91N F95I showed 1.1 µM (2 of 3 replicates). With E23Y R90Y F95P the result was 1.2 µM (1 of 3 replicates). Variant R90M Q96M gave 2.5 µM (1 of 3 replicates). Variant Y29M R90H gave 3.5 µM (3 of 3 replicates). Variant N51E R90H gave 3.8 µM (3 of 3 replicates).

Variant K50R R53V R90A showed 3.9 µM (1 of 3 replicates). For N52H S55Y R90V, the assay gave 4.0 µM (3 of 3 replicates). Variant N33T K50E R90S showed 5.5 µM (1 of 3 replicates). Variant S55E R90K V97D showed 6.1 µM (3 of 3 replicates). Variant N33I R90C gave 6.7 µM (1 of 3 replicates). Variant Y30C G49Q R90I gave 7.3 µM (1 of 3 replicates). Variant S26V N51C R90G showed 7.4 µM (1 of 3 replicates).

Variant L27A R53H R90I gave 7.6 µM (1 of 3 replicates). With Y30V A32P R90Y the result was 9.0 µM (3 of 3 replicates). Variant S88T R90F S93I gave 13 µM (1 of 3 replicates). Variant R28L R90V D91M gave 14 µM (2 of 3 replicates). Variant A32P G49R R90V gave 14 µM (1 of 3 replicates). For R28I N52S R90F, the assay gave 18 µM (1 of 3 replicates). Variant R28W A32Q R90A showed 19 µM (1 of 3 replicates).

Variant A32H R90Q F95E gave 19 µM (2 of 3 replicates). Variant E23P R90E Q96W showed 22 µM (2 of 3 replicates). Variant L27Q R90A D91S gave 30 µM (1 of 3 replicates). For R53I S88M R90S, the assay gave 42 µM (1 of 3 replicates). Variant S89L R90Q D91P gave 43 µM (3 of 3 replicates). Variant N33P R90Y Q96W showed 82 µM (2 of 3 replicates). Variant A32M R90P Q96T gave 110 µM (2 of 3 replicates).

Variant R90N G94W F98S showed nd (0 of 3 replicates). For S89D R90C V97S, the assay gave nd (0 of 3 replicates). Variant L27G R90P F95A showed nd (0 of 3 replicates). Variant L27G N33C R90P gave nd (0 of 3 replicates). Variant A32N R90W Q96N gave nd (0 of 3 replicates). Variant K50Q R90H D91K gave nd (0 of 3 replicates).

The first 5 variants above that were never detected:

| changes | Kd | detected |
|---|---|---|
| R90N G94W F98S | nd | 0/3 |
| S89D R90C V97S | nd | 0/3 |
| L27G R90P F95A | nd | 0/3 |
| L27G N33C R90P | nd | 0/3 |
| A32N R90W Q96N | nd | 0/3 |